## Ab-14 heavy chain CDR variants: yeast mating affinities

The target is the same throughout: PDVDLGDISGINAS, from the HR2 region of SARS-CoV-2 spike.

Parent: Ab-14, a human scFv built as VH, a 15-residue (Gly4Ser)3 linker, VL. Only the CDRs of the heavy chain vary.
VH: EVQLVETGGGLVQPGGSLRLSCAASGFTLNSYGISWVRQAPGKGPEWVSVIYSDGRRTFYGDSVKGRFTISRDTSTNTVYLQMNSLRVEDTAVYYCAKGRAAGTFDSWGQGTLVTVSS
VL: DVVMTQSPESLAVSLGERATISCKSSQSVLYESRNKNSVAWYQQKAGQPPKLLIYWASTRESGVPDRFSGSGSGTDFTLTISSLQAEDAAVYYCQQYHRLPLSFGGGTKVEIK

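Phage display of a naive human antibody library on the peptide gave the parent. AAYL49 was designed without a model: most single CDR substitutions and a random sample of double and triple ones. Affinity was read by AlphaSeq, a pooled yeast mating assay with surface-displayed partners. After mating in shaken culture at 30 °C for 16 h, diploids were selected and their barcode pairs sequenced. The ratio of observed to expected reads was calibrated, replicate by replicate, on BCL2-family standards whose Kd was known from biolayer interferometry. There are three technical replicates.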

The parent's heavy chain CDRs are GFTLNSYGIS, VIYSDGRRTFYGDSVK, GRAAGTFDS; each variant's own CDRs replace them letter for letter. Scale: log10 of Kd in nM, estimated from mating counts; low values are strong binders. "nd" marks a missing value. The strain was present, yet no cells mated with the target were sequenced in that replicate, which points to weak or no binding. In this assay the parent's reference entry averaged 0.65; its copy inside this library read 4.11 (one replicate of three).

CDR-H1	CDR-H2	CDR-H3	replicates, log10 nM	signal with controls
GFTLNSYMIK	VIYSDGRFTFYGDSVK	GRAAGTFDS	nd / 4.45 / nd	0 of 9
GFTLHSYGIS	VIYSDGRRTFYGDSVQ	GRAEGTFDS	nd / nd / nd	0 of 9
GFTLNSYRIS	VMYIDGRRTFYGDSVK	GRAAGTFDS	nd / nd / nd	0 of 9
GFTLVSYGIS	VIYWDGRNTFYGDSVK	GRAAGTFDS	nd / nd / nd	0 of 9
GFTLNSYGYS	VIYSDGRRTFYGDIVK	GRKAGTFDS	nd / nd / 3.61	1 of 9 (3.99)
GFTLNSYGIS	VITGDGRRTFYGDSKK	GRAAGTFDS	nd / nd / nd	2 of 9 (3.62)
GATLNSYGIS	VIESDGDRTFYGDSVK	GRAAGTFDS	2.75 / nd / nd	1 of 9 (4.48)
GFTLNSVGIS	VIYSDGRRTFYGDSVK	GRALGTFDR	nd / 5.18 / 5.01	2 of 9 (4.14)
GFTLNSYGIS	VIYSDGRRTFLGDYVK	GIAAGTFDS	nd / nd / nd	0 of 9
GFTLNSYMIS	VIYSDYRRTFYGDSVK	GVAAGTFDS	nd / 3.55 / nd	1 of 9 (3.14)
GFTLNSYGIS	MIYSDGERTFYGDSVK	IRAAGTFDS	nd / 4.89 / 3.57	4 of 9 (4.36)
GFTLNSYGIS	NIYSDGRRTGYGDTVK	GRAAGTFDS	nd / nd / nd	1 of 9 (3.49)
GFTLNSYGIS	VIYSDGQRTFYGDSCK	GRAGGTFDS	3.67 / 2.79 / 4.03	3 of 9 (3.94)
GFTLNTYGIS	DIYSDGRREFYGDSVK	GRAAGTFDS	3.86 / 3.92 / 4.70	3 of 9 (5.34)
GFTLNSQGIS	VIYSDGRRTFYGDSVK	GRAAGPNDS	nd / nd / nd	0 of 9
GFTLNSYGIS	VIYFDGRRTFQGYSVK	GRAAGTFDS	nd / nd / nd	1 of 9 (3.40)
GFTLASYGIS	VIYSDGRRTLYGDSVK	GRAAGTFDS	3.00 / 2.97 / 2.89	0 of 9
GFTLNSYGPS	VIYHDGRRTFYGDSVK	GRAAGTFTS	2.55 / 2.05 / 2.32	0 of 9
GFGLNSLGIS	VFYSDGRRTFYGDSVK	GRAAGTFDS	nd / nd / nd	1 of 9 (3.26)
GFTLNSYSIS	VIYSDGRRTFYGDSVK	GCIAGTFDS	nd / nd / nd	0 of 9
GFTLNSYGIS	VIYSDGTRTFYGDSVK	GRAAGTFGS	nd / 3.51 / 4.95	4 of 9 (3.91)
TFTLNSYGIS	VIYSPGRRTFLGDSVK	GRAAGTFDS	nd / nd / nd	0 of 9
GFTLNYYGIS	VIYSDGRSTFYGDSVK	GRAFGTFDS	nd / nd / 3.03	0 of 9
LFTLNSYGIL	VIYSDGRRTFYGDSVK	PRAAGTFDS	4.93 / nd / nd	0 of 9
GFTCNDYGIS	VMYSDGRRTFYGDSVK	GRAAGTFDS	3.08 / 3.61 / nd	0 of 9
GFTLNCHGIS	VTYSDGRRTFYGDSVK	GRAAGTFDS	nd / nd / nd	1 of 9 (3.95)
GFTLNPYGIS	VIYSAGRRTFYGDSVK	GRAAATFDS	nd / nd / nd	0 of 9
GFPLNSYGIS	VIYSDGRRTFYGDSVK	GRAAGTNDS	nd / nd / nd	3 of 9 (4.21)
GFTNNSYGIS	VIYSDFRRTFYGDSVK	GRAAGTLDS	nd / 3.88 / nd	1 of 9 (3.59)
GFTLNRYGIS	VIYSDGRKTFYGDSAK	GRAAGTFDS	nd / nd / nd	0 of 9
GFTLNSYCIS	VIYSGGRRTFYGDSVK	GYAAGTFDS	nd / 3.23 / 5.44	2 of 9 (3.81)
GFTLNSYGIS	VIYSDLRRTFYGDSHK	GRAAGTFQS	nd / nd / nd	4 of 9 (4.45)
GFTLNSYGVS	VIYSDGKRTFYGDSVK	GRAHGTFDS	4.66 / 3.85 / nd	4 of 9 (4.06)
GFTANSYGIS	VIYSDGRRTFYGDSVK	ARAAGAFDS	2.72 / nd / nd	0 of 9
GETLNKYGIS	VIYSDGRRTFYGDSVK	GRAAGTFDS	0.63 / 0.85 / 0.73	3 of 9 (4.00)

The closing 3 entries, repeated:

CDR-H1	CDR-H2	CDR-H3	replicates, log10 nM	signal with controls
GFTLNSYGVS	VIYSDGKRTFYGDSVK	GRAHGTFDS	4.66 / 3.85 / nd	4 of 9 (4.06)
GFTANSYGIS	VIYSDGRRTFYGDSVK	ARAAGAFDS	2.72 / nd / nd	0 of 9
GETLNKYGIS	VIYSDGRRTFYGDSVK	GRAAGTFDS	0.63 / 0.85 / 0.73	3 of 9 (4.00)

Empty control strains, which show no peptide, gave a signal in 15% of pairings with library AAYL49; the median was 4.06 and 95% of these signals were weaker than 2.83. No background was subtracted. The control count says in how many pairings with the empty strains this scFv gave a signal, with their mean in brackets.

From the AlphaSeq antibody data of Engelhart et al. 2022 (doi:10.1038/s41597-022-01779-4), copy in the FLAb collection.